Laboratory results: patent EP1435941B1 (ARIZONA BOARD OF REGENTS on behalf of THE UNIVERSITY OF …, priority 2001, dated 2003)

Test system: C57BL6 mice
Conditions: percent decrease in lymphocyte counts at the MTD or highest dose tested, wortmannin as 1.0

## COC[C@H]1OC(=O)C(=CN(C)Cc2ccccc2)C2=C(O)C(=O)C3=C([C@H](OC(C)=O)C[C@]4(C)C(=O)CC[C@@H]34)[C@]21C [DJM2-181, Acetic acid 4-[(benzylmethylamino)methylene]-6-hydroxy-1α-methoxymethyl-10β,13β-dimethyl-3,7,17-trioxo-1,3,4,7,10,11β,12,13, 14α,15,16,17-dodecahydro-2-oxa-cyclopenca[a]phenanthren-11-yl ester]
  Lymphocyte toxicity relative to wortmannin: 1.9
